Values quoted from earlier work, collected in US20250387404A1, “FORMULATIONS AND METHODS FOR TREATING EPIDERMOLYSIS BULLOSA SIMPLEX AND RELATED CONDITIONS” (RUTGERS, THE STATE UNIVERSITY OF NEW JERSEY, priority 2022, published 2025).

Conditions: phase 1b, newly diagnosed AML, 50 mg twice daily; cited from earlier work

In the case of 4′-N-benzoylstaurosporine [PKC412], the “safety of oral administration” value is given as “administered safely with an acceptable side-effect profile”.
